Protein sequences, listed by entry. Tags and fused reporters are not part of them.
UniProt P35222, whole entry: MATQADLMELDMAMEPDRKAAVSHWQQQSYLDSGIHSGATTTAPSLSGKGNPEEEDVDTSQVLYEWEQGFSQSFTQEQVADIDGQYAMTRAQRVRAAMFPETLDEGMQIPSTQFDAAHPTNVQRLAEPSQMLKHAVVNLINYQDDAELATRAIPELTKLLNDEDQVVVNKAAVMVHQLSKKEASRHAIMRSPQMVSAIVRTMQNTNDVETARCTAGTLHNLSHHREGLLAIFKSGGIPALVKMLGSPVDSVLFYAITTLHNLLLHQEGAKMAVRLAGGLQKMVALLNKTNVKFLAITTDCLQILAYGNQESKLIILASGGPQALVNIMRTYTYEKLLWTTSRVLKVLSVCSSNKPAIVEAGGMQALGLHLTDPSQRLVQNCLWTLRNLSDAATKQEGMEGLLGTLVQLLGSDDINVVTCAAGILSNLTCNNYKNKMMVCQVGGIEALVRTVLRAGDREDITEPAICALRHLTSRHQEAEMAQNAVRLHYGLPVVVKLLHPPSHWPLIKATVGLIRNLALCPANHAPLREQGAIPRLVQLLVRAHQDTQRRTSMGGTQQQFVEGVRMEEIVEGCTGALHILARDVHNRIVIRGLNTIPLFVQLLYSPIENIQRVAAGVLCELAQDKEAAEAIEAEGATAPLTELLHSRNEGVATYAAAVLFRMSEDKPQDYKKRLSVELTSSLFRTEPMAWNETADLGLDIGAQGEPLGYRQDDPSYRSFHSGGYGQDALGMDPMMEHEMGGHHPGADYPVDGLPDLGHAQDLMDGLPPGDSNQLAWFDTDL

In US20240360179A1, “STAPLED PEPTIDES AND METHODS THEREOF” (FOG PHARMACEUTICALS, INC., priority 2021, published 2024):

Key:
[1] = molecular target: T1, full-length B-Catenin (Uniprot ID P35222) (Homo sapiens, UniProt P35222); assay: biochemical; type: binding; conditions: beta-Catenin FP IC50 (nM), competition fluorescence polarization
T1 construct: 10 nM full-length B-Catenin (Uniprot ID P35222)

[2] = molecular target: beta-catenin/TCF4 interaction (Homo sapiens, UniProt P35222); assay: cell-based; design: host or cells: HEK293; conditions: NanoBRET Abs IC50 (uM), absolute IC50

In the case of CC(=O)N1CCC[C@]12CC=CCCCC1(CCCC=CCCCOC(=O)N3CC[C@@]4(C3)NC(=O)[C@H](CCCCNC(=O)CC[C@@H](C(=O)N[C@@H](C)C(N)=O)NC(=O)[C@H](Cc3csc5ccccc35)NC(=O)[C@H](Cc3ccsc3)NC4=O)NC(=O)[C@H](Cc3ccccc3)NC(=O)[C@H](C)NC(=O)C(C)(C)NC(=O)[C@H](Cc3cccc(C(=O)O)c3)NC(=O)[C@H](CC(=O)O)NC1=O)NC(=O)[C@H](C(c1ccccc1)c1ccccc1)NC(=O)[C@H](CC(=O)O)NC2=O (single isomer, unassigned) [I-310, Ac-PL3-Asp-DipA-B5-Asp-3COOHF-Aib-Ala-Phe-Lys*3-PyrS2-3Thi-BztA-GlnR*3-Ala-NH2], the IC50 [1] is reported as < 50 nM and the IC50 [2] is reported as 1.5 to 3 µM.

For CC(=O)N1CCC[C@]12CC=CCCCC1(CCCC=CCCCOC(=O)N3CC[C@@]4(C3)NC(=O)[C@H](CCCCn3cc(nn3)C[C@@H](C(=O)N[C@@H](C)C(N)=O)NC(=O)[C@H](Cc3csc5ccccc35)NC(=O)[C@H](Cc3ccsc3)NC4=O)NC(=O)[C@H](Cc3ccccc3)NC(=O)[C@H](C)NC(=O)C(C)(C)NC(=O)[C@H](Cc3cccc(C(=O)O)c3)NC(=O)[C@H](CC(=O)O)NC1=O)NC(=O)[C@H](CC(C)(C)C)NC(=O)[C@H](CC(=O)O)NC2=O (single isomer, unassigned) [I-335, Ac-PL3-Asp-Npg-B5-Asp-3COOHF-Aib-Ala-Phe-TriAzLys*3-PyrS2-3Thi-BztA-sAla*3-Ala-NH2], the IC50 [1] was < 50 nM and the IC50 [2] was < 1.5 µM.

In the case of CC(=O)N1CCC[C@]12CC=CCCCC1(CCCC=CCCCOC(=O)N3CC[C@@]4(C3)NC(=O)[C@H](CCCCNC(=O)CC[C@@H](C(=O)N[C@@H](C)C(N)=O)NC(=O)[C@H](Cc3csc5ccccc35)NC(=O)[C@H](Cc3ccsc3)NC4=O)NC(=O)[C@H](Cc3ccccc3)NC(=O)[C@H](C)NC(=O)C3(CCCC3)NC(=O)[C@H](Cc3cccc(C(=O)O)c3)NC(=O)[C@H](CC(=O)O)NC1=O)NC(=O)[C@H](CC(C)(C)C)NC(=O)[C@H](CC(=O)O)NC2=O (single isomer, unassigned) [I-382, Ac-PL3-Asp-Npg-B5-Asp-3COOHF-CyLeu-Ala-Phe-Lys*3-PyrS2-3Thi-BztA-GlnR*3-Ala-NH2], the IC50 [1] is reported as < 50 nM and the IC50 [2] is reported as 1.5 to 3 µM.

For CC(=O)N1CCC[C@]12CC=CCCCC1(CCCC=CCCCOC(=O)N3CC[C@@]4(C3)NC(=O)[C@H](CCCCNC(=O)CC[C@@H](C(=O)N[C@@H](C)C(N)=O)NC(=O)[C@H](Cc3csc5ccccc35)NC(=O)[C@H](Cc3ccsc3)NC4=O)NC(=O)[C@H](Cc3ccccc3)NC(=O)[C@H](C)NC(=O)[C@H](CO)NC(=O)[C@H](Cc3cccc(C(=O)O)c3)NC(=O)[C@H](CC(=O)O)NC1=O)NC(=O)[C@H](CC(C)(C)C)NC(=O)[C@H](CC(=O)O)NC2=O (single isomer, unassigned) [I-389, Ac-PL3-Asp-Npg-B5-Asp-3COOHF-Ser-Ala-Phe-Lys*3-PyrS2-3Thi-BztA-GlnR*3-Ala-NH2], the IC50 [1] was < 50 nM and the IC50 [2] was 1.5 to 3 µM.

In the case of CC(=O)N1CCC[C@]12CC=CCCCC1(CCCC=CCCCOC(=O)N3CC[C@@]4(C3)NC(=O)[C@H](CCCCNC(=O)CC[C@@H](C(=O)N[C@@H](C)C(N)=O)NC(=O)[C@H](Cc3csc5ccccc35)NC(=O)[C@H](Cc3ccsc3)NC4=O)NC(=O)[C@H](Cc3ccccc3)NC(=O)[C@H](C)NC(=O)[C@H](CCC(N)=O)NC(=O)[C@H](Cc3cccc(C(=O)O)c3)NC(=O)[C@H](CC(=O)O)NC1=O)NC(=O)[C@H](CC(C)(C)C)NC(=O)[C@H](CC(=O)O)NC2=O (single isomer, unassigned) [I-391, Ac-PL3-Asp-Npg-B5-Asp-3COOHF-Gln-Ala-Phe-Lys*3-PyrS2-3Thi-BztA-GlnR*3-Ala-NH2], the IC50 [1] is reported as < 50 nM and the IC50 [2] is reported as 3 to 10 µM.

In the case of CC(=O)N1CCC[C@]12CC=CCCCC1(CCCC=CCCCOC(=O)N3CC[C@@]4(C3)NC(=O)[C@H](CCCCNC(=O)CC[C@@H](C(=O)N[C@@H](C)C(N)=O)NC(=O)[C@H](Cc3csc5ccccc35)NC(=O)[C@H](Cc3ccsc3)NC4=O)NC(=O)[C@H](Cc3ccccc3)NC(=O)[C@H](C)NC(=O)[C@H](CC(N)=O)NC(=O)[C@H](Cc3cccc(C(=O)O)c3)NC(=O)[C@H](CC(=O)O)NC1=O)NC(=O)[C@H](CC(C)(C)C)NC(=O)[C@H](CC(=O)O)NC2=O (single isomer, unassigned) [I-393, Ac-PL3-Asp-Npg-B5-Asp-3COOHF-Asn-Ala-Phe-Lys*3-PyrS2-3Thi-BztA-GlnR*3-Ala-NH2], the IC50 [1] is reported as < 50 nM and the IC50 [2] is reported as 3 to 10 µM.

CC(=O)N1CCC[C@]12CC=CCCCC1(CCCC=CCCCOC(=O)N3CC[C@@]4(C3)NC(=O)[C@H](CCCCNC(=O)CC[C@@H](C(=O)N[C@H](C(=O)N[C@@H](C)C(N)=O)C(C)C)NC(=O)[C@H](Cc3csc5ccccc35)NC(=O)[C@H](Cc3ccsc3)NC4=O)NC(=O)[C@H](Cc3ccccc3)NC(=O)[C@H](C)NC(=O)C(C)(C)NC(=O)[C@H](Cc3cccc(C(=O)O)c3)NC(=O)[C@H](CC(=O)O)NC1=O)NC(=O)[C@H](CC(C)(C)C)NC(=O)[C@H](CC(=O)O)NC2=O (single isomer, unassigned) [I-402, Ac-PL3-Asp-Npg-B5-Asp-3COOHF-Aib-Ala-Phe-Lys*3-PyrS2-3Thi-BztA-GlnR*3-Val-Ala-NH2] was tested, and the IC50 [1] was < 50 nM and the IC50 [2] was 1.5 to 3 µM.

For CC(=O)N1CCC[C@]12CC=CCCCC1(CCCC=CCCCOC(=O)N3CC[C@@]4(C3)NC(=O)[C@H](CCCCNC(=O)CC[C@@H](C(=O)NC(C)(C)C(=O)N[C@@H](C)C(N)=O)NC(=O)[C@H](Cc3csc5ccccc35)NC(=O)[C@H](Cc3ccsc3)NC4=O)NC(=O)[C@H](Cc3ccccc3)NC(=O)[C@H](C)NC(=O)C(C)(C)NC(=O)[C@H](Cc3cccc(C(=O)O)c3)NC(=O)[C@H](CC(=O)O)NC1=O)NC(=O)[C@H](CC(C)(C)C)NC(=O)[C@H](CC(=O)O)NC2=O (single isomer, unassigned) [I-404, Ac-PL3-Asp-Npg-B5-Asp-3COOHF-Aib-Ala-Phe-Lys*3-PyrS2-3Thi-BztA-GlnR*3-Aib-Ala-NH2], the IC50 [1] was < 50 nM and the IC50 [2] was < 1.5 µM.

With CC(=O)N1CCC[C@]12CC=CCCCC1(CCCC=CCCCOC(=O)N3CC[C@@]4(C3)NC(=O)[C@H](CCCCNC(=O)CC[C@@H](C(=O)N[C@H](C(=O)NC(C)(C)C(N)=O)C(C)C)NC(=O)[C@H](Cc3csc5ccccc35)NC(=O)[C@H](Cc3ccsc3)NC4=O)NC(=O)[C@H](Cc3ccccc3)NC(=O)[C@H](C)NC(=O)C(C)(C)NC(=O)[C@H](Cc3cccc(C(=O)O)c3)NC(=O)[C@H](CC(=O)O)NC1=O)NC(=O)[C@H](CC(C)(C)C)NC(=O)[C@H](CC(=O)O)NC2=O (single isomer, unassigned) [I-407, Ac-PL3-Asp-Npg-B5-Asp-3COOHF-Aib-Ala-Phe-Lys*3-PyrS2-3Thi-BztA-GlnR*3-Val-Aib-NH2] the IC50 [1] was < 50 nM and the IC50 [2] was 1.5 to 3 µM.

For CC(=O)N1CCC[C@]12CC=CCCCC1(CCCC=CCCCOC(=O)N3CC[C@@]4(C3)NC(=O)[C@H](CCCCNC(=O)CC[C@@H](C(=O)NC(C)(C)C(=O)NC(C)(C)C(N)=O)NC(=O)[C@H](Cc3csc5ccccc35)NC(=O)[C@H](Cc3ccsc3)NC4=O)NC(=O)[C@H](Cc3ccccc3)NC(=O)[C@H](C)NC(=O)C(C)(C)NC(=O)[C@H](Cc3cccc(C(=O)O)c3)NC(=O)[C@H](CC(=O)O)NC1=O)NC(=O)[C@H](CC(C)(C)C)NC(=O)[C@H](CC(=O)O)NC2=O (single isomer, unassigned) [I-409, Ac-PL3-Asp-Npg-B5-Asp-3COOHF-Aib-Ala-Phe-Lys*3-PyrS2-3Thi-BztA-GlnR*3-Aib-Aib-NH2], the IC50 [1] was < 50 nM and the IC50 [2] was < 1.5 µM.
